Source: ChEMBL document CHEMBL1129178, “Thiol inhibitors of endothelin-converting enzyme” (Bioorg Med Chem Lett, 1996)

Molecular target: T1, Endothelin-converting enzyme 1 (Rattus norvegicus, UniProt P42893)
T1 sequence (P42893 whole entry): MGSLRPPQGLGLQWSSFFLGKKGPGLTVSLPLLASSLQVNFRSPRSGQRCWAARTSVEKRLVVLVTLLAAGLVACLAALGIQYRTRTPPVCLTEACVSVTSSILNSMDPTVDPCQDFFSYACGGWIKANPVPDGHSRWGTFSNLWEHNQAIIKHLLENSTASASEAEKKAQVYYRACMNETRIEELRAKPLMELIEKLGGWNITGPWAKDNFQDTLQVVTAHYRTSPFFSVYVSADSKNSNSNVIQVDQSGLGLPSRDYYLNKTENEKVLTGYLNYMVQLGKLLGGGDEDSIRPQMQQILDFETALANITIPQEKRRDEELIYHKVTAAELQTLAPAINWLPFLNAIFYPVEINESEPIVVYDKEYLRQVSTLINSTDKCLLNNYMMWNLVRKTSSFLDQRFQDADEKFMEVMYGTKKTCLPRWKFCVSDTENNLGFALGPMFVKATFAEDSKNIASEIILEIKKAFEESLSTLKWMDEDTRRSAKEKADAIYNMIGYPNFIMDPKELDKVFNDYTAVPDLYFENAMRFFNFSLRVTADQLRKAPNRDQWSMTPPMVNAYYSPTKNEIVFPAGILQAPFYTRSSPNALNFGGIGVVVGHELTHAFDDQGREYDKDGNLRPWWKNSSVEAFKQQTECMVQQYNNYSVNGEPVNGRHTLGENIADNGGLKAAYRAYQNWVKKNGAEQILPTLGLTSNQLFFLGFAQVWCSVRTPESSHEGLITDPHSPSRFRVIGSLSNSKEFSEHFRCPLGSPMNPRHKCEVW
Assay: In vitro inhibition of Endothelin-converting enzyme 1 from rat lungs.

IC50: 0.02 µM
Structure (SMILES): O=C(N[C@@H](Cc1c[nH]c2ccccc12)C(=O)O)C(CS)Cc1cccc(Br)c1 (stereo partly specified)
